# Legend:
# [1] = system: subcutaneous metrazol seizure threshold; experiment: subcutaneous Metrazol Seizure Threshold Test (sc Met), mice
# [2] = system: subcutaneous picrotoxin seizure threshold; conditions: mice; intraperitoneal
# [3] = system: subcutaneous bicuculline seizure threshold; experiment: subcutaneous Bicuculline Seizure Threshold Test (sc Bic); conditions: mice; intraperitoneal
# [4] = system: maximal electroshock seizures; experiment: maximal electroshock seizure (MES) pattern test, rats; conditions: rats (Table 7; title of Table 5 prints Mice); oral
structure (smiles),measurement,setting,value
O=C1NC(=O)C(c2ccccc2)(c2ccccc2)N1 [Phenytoin],PI (TD50/ED50) sc Met,[1]; intraperitoneal,< 0.22
same,PI (TD50/ED50) sc Met,[1]; oral,< 0.29
same,PI (TD50/ED50) Picrotoxin,[2],< 0.65
same,PI (TD50/ED50) Bicuculline,[3],< 0.65
same,PI (TD50/ED50) MES,[4],> 100

# Reference: patent US4379165A, “Anti-convulsant” (priority 1981, dated 1983)
